{"source": "PubChem BioAssay AID463079", "about": "(The Scripps Research Institute Molecular Screening Center, 2010)", "note": "The list shows a part of the results, in another mix than the full data. Some structures show a salt or complex split into parts, the way the source records it. Calls of active or inactive are those of the source.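 The calls were made as follows: active = inhibition above that plate's mean sample inhibition plus 3 SD (cut at about 26% in these data); inactive = the rest.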"}
{"experiment": "ATP-evoked calcium signal inhibitors, parental CHO, primary screen, counter-screen for OX1R antagonist project, cell-based, fluorescence, Fluo-8 calcium dye (AID 463079);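 also: 0% = ATP-challenged DMSO wells and 100% = DMSO wells without ATP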", "details": "parental CHO-K1, ATP-induced calcium, Fluo-8 fluorescence; at 5.6 µM; active compounds read high"}
{"molecule": "CCN(CC)CCCOC(=O)C(O)(c1ccccc1)c1ccccc1", "inhibition": "inactive: -6.83%"}
{"molecule": "Cc1cccc(C)c1OP(C)(N)=O", "note": "(configuration not stated)", "inhibition": "inactive: -1.73%"}
{"molecule": "CC(C)(C)c1ccc(OP(C)(=O)Nc2ccc(SC(F)(F)F)cc2)cc1", "note": "(configuration not stated)", "inhibition": "inactive: -28%"}
{"molecule": "O=[N+]([O-])c1ccc2c(c1)C=Nc1ccccc1O2", "inhibition": "inactive: -11.6%"}
{"molecule": "O=[N+]([O-])c1cc([N+](=O)[O-])c(Nc2cccnc2)c([N+](=O)[O-])c1", "inhibition": "inactive: 11.6%"}
{"molecule": "COc1ccc(OP(C)(=O)Nc2cccc(F)c2)cc1", "note": "(configuration not stated)", "inhibition": "inactive: -8.51%"}
{"molecule": "COc1ccccc1OP(C)(=O)Nc1cc(Cl)ccc1C", "note": "(configuration not stated)", "inhibition": "inactive: -3.47%"}
{"molecule": "Cc1cc(C)cc(OP(C)(N)=O)c1", "note": "(configuration not stated)", "inhibition": "inactive: 9.42%"}
{"molecule": "CCOC(=O)c1ccc(NP(C)(=O)Oc2ccccc2)cc1", "note": "(configuration not stated)", "inhibition": "inactive: -0.77%"}
{"molecule": "Cc1ccc(NP(C)(=O)Oc2ccccc2)c(C)c1", "note": "(configuration not stated)", "inhibition": "inactive: -7.11%"}
{"molecule": "COc1ccccc1OP(C)(=O)Nc1ccc(C)cc1", "note": "(configuration not stated)", "inhibition": "inactive: 4.27%"}
{"molecule": "COc1ccccc1OP(C)(=O)Nc1ccccc1", "note": "(configuration not stated)", "inhibition": "inactive: 11.4%"}
{"molecule": "CP(=O)(Nc1ccccc1Br)Oc1ccccc1", "note": "(configuration not stated)", "inhibition": "inactive: -5.13%"}
{"molecule": "CP(=S)(Nn1cnnc1)Oc1ccccc1", "note": "(configuration not stated)", "inhibition": "inactive: -1.55%"}
{"molecule": "Cc1cc(C)cc(OP(C)(=O)Nc2ccc(SC(F)(F)F)cc2)c1", "note": "(configuration not stated)", "inhibition": "inactive: -5.75%"}
{"molecule": "CP(=O)(NC(=O)Nc1ccccc1)Oc1ccccc1", "note": "(configuration not stated)", "inhibition": "inactive: 0.15%"}
{"molecule": "CCc1ccc(OP(C)(=O)N2CCN(c3ccc([N+](=O)[O-])cc3)CC2)cc1", "note": "(configuration not stated)", "inhibition": "inactive: 8.88%"}
{"molecule": "CP(=O)(Oc1ccccc1)OC(c1ccccc1)C(F)(F)F", "note": "(configuration not stated)", "inhibition": "inactive: -7.13%"}
{"molecule": "Cc1cccc(C)c1OP(C)(=O)Nc1ccc(SC(F)(F)F)cc1", "note": "(configuration not stated)", "inhibition": "inactive: 12.4%"}
{"molecule": "CP(=O)(Nc1ccc(SC(F)(F)F)cc1)Oc1ccc(Cl)cc1", "note": "(configuration not stated)", "inhibition": "inactive: -10.1%"}
{"molecule": "CP(=O)(Nc1ccccn1)Oc1ccc(Cl)cc1", "note": "(configuration not stated)", "inhibition": "inactive: -5.98%"}
{"molecule": "CCOP(C)(=S)SCC(=O)NC(C)C(=O)O", "note": "(configuration not stated)", "inhibition": "inactive: 3.36%"}
{"molecule": "CCOC(=O)c1ccc(NP(C)(=O)Oc2ccc(OC)cc2)cc1", "note": "(configuration not stated)", "inhibition": "inactive: -3.22%"}
{"molecule": "O=[N+]([O-])c1cc([N+](=O)[O-])c(O)c([N+](=O)[O-])c1.c1ccc(Oc2ccncc2)cc1", "inhibition": "inactive: 1.03%"}
{"molecule": "O=[N+]([O-])c1cc([N+](=O)[O-])c(-n2nnc3ccccc32)c([N+](=O)[O-])c1", "inhibition": "inactive: -8.05%"}
{"molecule": "Cc1nc2ccc3ccccc3c2s1.O=[N+]([O-])c1cc([N+](=O)[O-])c(O)c([N+](=O)[O-])c1", "inhibition": "inactive: -9.09%"}
{"molecule": "O=[N+]([O-])c1cc([N+](=O)[O-])c(-c2cnn(-c3ccccc3)c2)c([N+](=O)[O-])c1", "inhibition": "inactive: -2.23%"}
{"molecule": "CCOC(=O)C(CC)C1=NC(C)(C)Cc2ccccc21.O=[N+]([O-])c1cc([N+](=O)[O-])c(O)c([N+](=O)[O-])c1", "note": "(configuration not stated)", "inhibition": "inactive: -9.18%"}
{"molecule": "CC1=C2N=C(C=C3N=C(C(C)=C4[N-][C@@](C)([C@@H]5N=C1[C@](C)(CCC(=O)NC[C@@H](C)OP(=O)([O-])O[C@H]1[C@@H](O)[C@@H](n6cnc7cc(C)c(C)cc76)O[C@@H]1CO)[C@H]5CC(N)=O)[C@@](C)(CC(N)=O)[C@@H]4CCC(N)=O)[C@@](C)(CC(N)=O)[C@@H]3CCC(N)=O)C(C)(C)[C@@H]2CCC(N)=O.[C-]#N.[Co+3]", "inhibition": "inactive: 0.95%"}
{"molecule": "O=[N+]([O-])c1cc([N+](=O)[O-])c(Nc2nnnn2CCO)c([N+](=O)[O-])c1", "inhibition": "inactive: -1.33%"}
{"molecule": "CP(=O)(Nc1ccc(SC(F)(F)F)cc1)Oc1ccccc1", "note": "(configuration not stated)", "inhibition": "inactive: -10.6%"}
{"molecule": "COc1ccccc1OP(C)(=O)Nc1c(C)cccc1C", "note": "(configuration not stated)", "inhibition": "inactive: -2.08%"}
{"molecule": "CN1CCCCC1COC(=O)C1(O)c2ccccc2CCc2ccccc21", "note": "(configuration not stated)", "inhibition": "inactive: -21.1%"}
{"molecule": "O=C(O)c1cccc(Nc2c([N+](=O)[O-])cc([N+](=O)[O-])cc2[N+](=O)[O-])c1", "inhibition": "inactive: 5.02%"}
{"molecule": "CC1=NCCc2c1[nH]c1ccccc21.O=[N+]([O-])c1cc([N+](=O)[O-])c(O)c([N+](=O)[O-])c1", "inhibition": "inactive: -11.5%"}
{"molecule": "Cc1cc(C)cc(OP(C)(=O)Nc2ccc(C)cc2C)c1", "note": "(configuration not stated)", "inhibition": "inactive: -13.4%"}
{"molecule": "CCOC(=O)c1ccc(NP(C)(=O)Oc2cc(C)cc(C)c2)cc1", "note": "(configuration not stated)", "inhibition": "inactive: -28.7%"}
{"molecule": "COc1ccccc1OP(C)(=O)Nc1cccc(Br)c1", "note": "(configuration not stated)", "inhibition": "inactive: -8.72%"}
{"molecule": "Cc1cc(C)cc(OP(C)(=O)Nc2ccccn2)c1", "note": "(configuration not stated)", "inhibition": "inactive: -16%"}
{"molecule": "CP(=O)(Nc1cccc(Br)c1)Oc1ccccc1", "note": "(configuration not stated)", "inhibition": "inactive: -8.03%"}
{"molecule": "Cc1ccc(C)c(NP(C)(=O)Oc2ccccc2)c1", "note": "(configuration not stated)", "inhibition": "inactive: -6.49%"}
{"molecule": "CC(C)c1ccc(OP(C)(=O)Nc2ccc(SC(F)(F)F)cc2)cc1", "note": "(configuration not stated)", "inhibition": "inactive: -15.2%"}
{"molecule": "CP(=O)(Nc1ccccc1F)Oc1ccccc1", "note": "(configuration not stated)", "inhibition": "inactive: -5.96%"}
{"molecule": "COc1ccc2c(c1O)-c1c(O)c(OC)cc3c1[C@H](C2)[N+](C)(C)CC3.O=[N+]([O-])c1cc([N+](=O)[O-])c([O-])c([N+](=O)[O-])c1[O-]", "inhibition": "inactive: -8.45%"}
{"molecule": "O=C(OCCN1CCN(CCOCc2ccccc2)CC1)C(O)(c1ccccc1)c1ccccc1", "inhibition": "inactive: -14.2%"}
{"molecule": "O=C(OC1CN2CCC1CC2)c1ccc([N+](=O)[O-])cc1", "note": "(configuration not stated)", "inhibition": "inactive: -11.8%"}
{"molecule": "COc1ccc(OP(C)(=O)Nc2ccc(SC(F)(F)F)cc2)cc1", "note": "(configuration not stated)", "inhibition": "inactive: 5.27%"}
{"molecule": "CCOC(=O)c1ccc(NP(C)(=O)Oc2ccc(F)cc2)cc1", "note": "(configuration not stated)", "inhibition": "inactive: 0.74%"}
{"molecule": "CCCCCOc1ccc(NP(C)(=O)Oc2ccc(Cl)cc2Cl)cc1", "note": "(configuration not stated)", "inhibition": "inactive: -20.5%"}
{"molecule": "O=[N+]([O-])c1cc([N+](=O)[O-])c(OC2CCCCC2O)c([N+](=O)[O-])c1", "note": "(configuration not stated)", "inhibition": "inactive: -12.5%"}
{"molecule": "CP(=O)(Nc1ccccc1)Oc1ccc(F)cc1", "note": "(configuration not stated)", "inhibition": "inactive: 13%"}
{"molecule": "CCN(CC)CCCOC(=O)C(O)(c1ccccc1)C1CCCCC1", "note": "(configuration not stated)", "inhibition": "inactive: -22.4%"}
{"molecule": "COc1ccc(NP(C)(=O)Oc2ccccc2OC)cc1", "note": "(configuration not stated)", "inhibition": "inactive: -8.48%"}
{"molecule": "CN(C)CCOC(=O)C(O)(c1ccccc1)C1CCCCC1", "note": "(configuration not stated)", "inhibition": "inactive: -21%"}
{"molecule": "COc1ccc(OP(C)(=O)Nc2cccc(Br)c2)cc1", "note": "(configuration not stated)", "inhibition": "inactive: -8.66%"}
{"molecule": "O=[N+]([O-])c1cc([N+](=O)[O-])c(NCC2CCS(=O)(=O)C2)c([N+](=O)[O-])c1", "note": "(configuration not stated)", "inhibition": "inactive: -7.17%"}
{"molecule": "CCOP(C)(=S)SCC(=O)NC(C)(CC)C(=O)O", "note": "(configuration not stated)", "inhibition": "inactive: -7.44%"}
{"molecule": "CP(=O)(Nc1ccc(SC(F)(F)F)cc1)Oc1ccc(F)cc1", "note": "(configuration not stated)", "inhibition": "inactive: 0.58%"}
{"molecule": "Cc1ccccc1NP(C)(=O)Nc1ccccc1C", "inhibition": "inactive: -13.8%"}
{"molecule": "CP(=O)(Nc1ccc2c(c1)OCCO2)Oc1ccccc1", "note": "(configuration not stated)", "inhibition": "inactive: -2.02%"}
{"molecule": "CCc1ccc(OP(C)(=O)Nc2cccnc2)cc1", "note": "(configuration not stated)", "inhibition": "inactive: -17%"}
{"molecule": "CP(=O)(Oc1ccccc1)N1CCOC1=O", "note": "(configuration not stated)", "inhibition": "inactive: 7.93%"}
{"molecule": "O=C(OCCCN1CCCC1)C(O)(c1ccccc1)C1CCCCC1", "note": "(configuration not stated)", "inhibition": "inactive: -8.88%"}
{"molecule": "COc1ccccc1OP(C)(=O)Nc1c(C)n(C)n(-c2ccccc2)c1=O", "note": "(configuration not stated)", "inhibition": "inactive: -18.7%"}
{"molecule": "COc1ccc(OP(C)(=O)Nc2ccc(Br)cc2)cc1", "note": "(configuration not stated)", "inhibition": "inactive: -5.94%"}
{"molecule": "CCN(CC)CC(O)COC(=O)C(O)(c1ccccc1)C1CCCCC1", "note": "(configuration not stated)", "inhibition": "inactive: -5.82%"}
{"molecule": "CN(C)C(=O)c1c([N+](=O)[O-])cc([N+](=O)[O-])cc1[N+](=O)[O-]", "inhibition": "inactive: -1.28%"}
{"molecule": "CP(=O)(Nc1ccc(Cl)cc1)Oc1ccc(F)cc1", "note": "(configuration not stated)", "inhibition": "inactive: -9.27%"}
{"molecule": "COc1ccccc1OP(C)(=O)Nc1ccccc1Br", "note": "(configuration not stated)", "inhibition": "inactive: -18%"}
{"molecule": "CC(C)(C)c1ccc(OP(C)(=O)O)cc1", "inhibition": "inactive: 10.8%"}
{"molecule": "CP(=O)(OC12CC3CC(CC(C3)C1)C2)OC12CC3CC(CC(C3)C1)C2", "inhibition": "inactive: -15.8%"}
{"molecule": "CCOC(=O)c1ccc(NP(C)(=O)Oc2ccc(Cl)cc2)cc1", "note": "(configuration not stated)", "inhibition": "inactive: -5.95%"}
{"molecule": "Nc1ccc2c(ccc3cccnc32)n1.O=[N+]([O-])c1cc([N+](=O)[O-])c(O)c([N+](=O)[O-])c1", "inhibition": "inactive: -14.9%"}
{"molecule": "COc1ccc(OP(C)(=O)Nc2ccccc2Br)cc1", "note": "(configuration not stated)", "inhibition": "inactive: -13.6%"}
{"molecule": "COc1ccccc1OP(C)(=O)Nc1ccc(C)c(C)c1", "note": "(configuration not stated)", "inhibition": "inactive: 3.11%"}
{"molecule": "Cc1cc(C)cc(OP(C)(=O)Nc2cccc(C(F)(F)F)c2)c1", "note": "(configuration not stated)", "inhibition": "inactive: -10.1%"}
{"molecule": "CP(=O)(Nc1ccc(Cl)cc1Cl)Oc1ccccc1", "note": "(configuration not stated)", "inhibition": "inactive: -5.22%"}
{"molecule": "CP(=O)(OCCOc1ccccc1)OCCOc1ccccc1", "inhibition": "inactive: -3.19%"}
{"molecule": "Cc1nc2ccc3ccccc3c2o1.O=[N+]([O-])c1cc([N+](=O)[O-])c(O)c([N+](=O)[O-])c1", "inhibition": "inactive: -0.86%"}
{"molecule": "CN(C)CCOC(=O)C(O)(c1ccccc1)C1CCCC1", "note": "(configuration not stated)", "inhibition": "inactive: -6.54%"}
{"molecule": "COc1ccc(OP(C)(=O)Nc2ccccn2)cc1", "note": "(configuration not stated)", "inhibition": "inactive: -9.61%"}
{"molecule": "COc1ccccc1OP(C)(=O)Nc1ccc(Br)cc1", "note": "(configuration not stated)", "inhibition": "inactive: 10.2%"}
{"molecule": "CCc1ccc(OP(C)(=O)O)cc1", "inhibition": "inactive: -1.66%"}
{"molecule": "COc1ccccc1OP(C)(=O)Nc1ccc(C)cc1C", "note": "(configuration not stated)", "inhibition": "inactive: -9.79%"}
{"molecule": "CP(=O)(Nc1ccccn1)Oc1ccccc1", "note": "(configuration not stated)", "inhibition": "inactive: -0.52%"}
{"molecule": "Cc1c(NP(C)(=O)Oc2ccc(C(C)C)cc2)c(=O)n(-c2ccccc2)n1C", "note": "(configuration not stated)", "inhibition": "inactive: -9.47%"}
{"molecule": "O=[N+]([O-])c1cc([N+](=O)[O-])c(Nc2ccccn2)c([N+](=O)[O-])c1", "inhibition": "inactive: -4.55%"}
